Data from article PMC10600185, “Development and pharmaceutical investigation of novel cervical cancer-targeting and redox-responsive melittin conjugates” (Scientific Reports, 2023).

How the values were obtained:
[1] = MTT cytotoxicity assay, NSF; format: cell-based; details: human, normal skin fibroblast (NSF) cells, 24 h treatment, serial dilutions 256–1 µg/mL, concentration by modified Mel peptide content, mean of three replicates
Protocol: (§1) C-33A ([…], ATCC), HeLa ([…], ATCC), 3T3 (CRL-1658™, ATCC), Normal Skin Fibroblast (CRL-2091™, ATCC) and MCF-7 (HTB-22™, ATCC) cell lines were cultured in complete EMEM, DMEM, DMEM, EMEM, and EMEM (containing 1% Pen/Strep antibiotic and 10% FBS), respectively. Cells from the different lines were seeded at a density of 5 × 10^4 cells/well in 100 µL medium placed in a flat-bottom 96-well plate and incubated at 5% CO2 and 37 °C. After 24 h, the medium was discarded from the 96-well plate. Serial dilutions of peptide/conjugate (i.e., 256–1 µg/mL) were prepared in triplicate in 100 µL complete medium then added onto each well and incubated at 5% CO2 and 37 °C for 24 h. The cytotoxicity was determined by MTT test (MTT, Cell Proliferation Kit, Roche) and measured at 550–690 nm on a microplate reader. The cell cytotoxicity was calculated with respect to control groups treated with only complete medium.

[2] = MTT cytotoxicity assay, 3T3; format: cell-based; details: mouse, 3T3 cells (embryonic fibroblasts), 24 h treatment, serial dilutions 256–1 µg/mL, concentration by modified Mel peptide content, mean of three replicates
Protocol: as §1

**Q.** For `CC[C@H](C)[C@H](NC(=O)CN)C(=O)NCC(=O)N[C@@H](C)C(=O)N[C@H](C(=O)N[C@@H](CC(C)C)C(=O)N[C@@H](CCCCN)C(=O)N[C@H](C(=O)N[C@@H](CC(C)C)C(=O)N[C@H](C(=O)N[C@H](C(=O)NCC(=O)N[C@@H](CC(C)C)C(=O)N1CCC[C@H]1C(=O)N[C@@H](C)C(=O)N[C@@H](CC(C)C)C(=O)N[C@H](C(=O)N[C@@H](CO)C(=O)N[C@@H](Cc1c[nH]c2ccccc12)C(=O)N[C@H](C(=O)N[C@@H](CCCCN)C(=O)N[C@@H](CCCNC(=N)N)C(=O)N[C@@H](CCCCN)C(=O)N[C@@H](CCCNC(=N)N)C(=O)N[C@@H](CCC(N)=O)C(=O)N[C@@H](CCC(N)=O)C(N)=O)[C@@H](C)CC)[C@@H](C)CC)[C@@H](C)O)[C@@H](C)O)C(C)C)C(C)C` [Mel, Melittin], which IC50 at 24 h [1] is on record?
**A.** 32.2 µg/mL (≈ 11.3 µM)

**Q.** And the IC50 at 24 h [2]?
**A.** 73 µg/mL (≈ 25.6 µM)

In brackets after ≈: the same amount, converted by molar mass.
